The text below walks through data of ChEMBL document CHEMBL4219197, “Synthesis, biological evaluation and SAR of naftopidil-based arylpiperazine derivatives” (Bioorg Med Chem Lett, 2018).

SMILES strings stand for the structures.

For the experiment, the species on record is Homo sapiens. The experiment in a line: Selectivity ratio of IC50 for alpha 1B adrenergic receptor (unknown origin) to IC50 for alpha 1A adrenergic receptor (unknown origin).
As to `Cl.Cl.Fc1ccc(N2CCN(CCc3ccc(COc4ccc5c(c4)CCCC5)cc3)CC2)cc1`, the Ratio IC50 amounted to 1. For `Cc1cccc(N2CCN(CCc3ccc(COc4ccc5c(c4)CCCC5)cc3)CC2)c1.Cl.Cl`, the Ratio IC50 was found to be 1.2. `COc1ccc(N2CCN(CCc3ccc(COc4ccc5c(c4)CCCC5)cc3)CC2)cc1.Cl.Cl`: the Ratio IC50 was found to be 16.7. For the compound `Cl.c1ccc(C2CCN(CCc3ccc(COc4ccc5c(c4)CCCC5)cc3)CC2)cc1`, the Ratio IC50 was 1.2. As to `Cl.Cl.Clc1cccc(N2CCN(CCc3ccc(COc4ccc5c(c4)CCCC5)cc3)CC2)c1`, the Ratio IC50 amounted to 0.8.
